The chains behind the UniProt entries cited, without tags or fusion partners. Residues count along the entry.
UniProt P14207, 17-255 limits assumed: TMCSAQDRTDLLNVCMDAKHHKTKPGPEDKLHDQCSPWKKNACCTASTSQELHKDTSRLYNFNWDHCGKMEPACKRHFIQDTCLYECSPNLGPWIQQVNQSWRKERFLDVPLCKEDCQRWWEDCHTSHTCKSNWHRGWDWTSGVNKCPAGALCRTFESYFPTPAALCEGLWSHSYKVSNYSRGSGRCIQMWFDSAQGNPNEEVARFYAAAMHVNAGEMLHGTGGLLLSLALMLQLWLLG
UniProt P01375, 77-233 limits assumed: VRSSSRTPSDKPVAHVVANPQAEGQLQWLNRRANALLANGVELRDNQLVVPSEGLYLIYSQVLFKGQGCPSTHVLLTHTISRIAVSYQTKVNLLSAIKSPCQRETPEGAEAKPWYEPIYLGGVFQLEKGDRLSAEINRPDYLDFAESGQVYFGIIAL

According to patent US20250127913A1, “BIFUNCTIONAL FOLATE RECEPTOR BINDING COMPOUNDS” (LYCIA THERAPEUTICS, INC., priority 2021, published 2025):

Legend:
[1] = tested on: TNFα trimer complex to folate receptor (FOLR2); assay: SPR co-engagement of compound-TNFα trimer complex to folate receptor; details: TNFα + 10 nM compound binding FOLR2
Procedure: The active (Flow cell 2) surfaces of a Cytiva CM5 Series S Sensor Chip functionalized with FOLR2 as described in Example 58. Example compounds were diluted to 10 nM with 50 and 100 nM TNFα single chain trimer or 150 nM and 300 nM TNFα native monomer in running buffer (10 mM HEPES, 150 mM NaCl, 0.05% T20, pH 7.5, 2% DMSO), allowed to incubate for 5 hours at 25° C. and then flowed over the active and reference surfaces for 110 s, and then allowed to dissociate in running buffer for 600 s, at a flow rate of 30 μL/min. The FOLR2 immobilized active surface and the reference surface were regenerated with a 30 s pulse of 4M MgCl2 at 30 μL/min then allowed to equilibrate 240 s. Sensorgrams were solvent corrected, double-referenced, and the data fitted and analyzed in Biacore Insight Evaluation Software Version 3.0.11.15423.

FOLR2 = FOLR2 (Homo sapiens (Human), UniProt P14207); assay: SPR binding kinetics of compounds to folate receptor (FOLR2 immobilized on CM5 chip); details: read-out: Folate binding SPR Kd
Procedure: A Biacore 8K+ was used to measure the association and dissociation rates of example compounds to FOLR2 (Acro Biosystems, Cat: F02-H5223-100 μg). Briefly, FOLR2 was reconstituted according to the manufacture's instructions to 200 μg/mL. Both the active and reference surfaces of a Cytiva CM5 Series S Sensor Chip were activated with a 1:1 mixture of 400 mM EDC and 100 mM NHS for 420 s at 10 μL/min. 25 μg/mL FOLR2 diluted in Sodium Acetate pH 5.5 was injected on the active channel (Flow Cell 2) for 420 s at 10p/min. Both the reference and active surfaces were then capped with 1M ethanolamine, pH 8.5 for 420 s, achieving an immobilization level of ˜4200 RU. Example compounds were serially diluted 1:1 in running buffer (10 mM HEPES, 150 mM NaCl, 0.05% T20, pH 7.5, 2% DMSO) from 100 nM to 3.125 nM and flowed over the active and reference surfaces for 120 s, and then allowed to dissociate in running buffer for 600 s, at 30 uL/min. The FOLR2 immobilized active surface and the reference surface were regenerated with a 30 s pulse of Sodium Acetate pH 5.5 at 30 μL/min. Sensorgrams were solvent corrected, double-referenced, and the data fitted and analyzed in Biacore Insight Evaluation Software Version 3.0.11.15423.

TNFα trimer = TNFα trimer (Homo sapiens, UniProt P01375); assay: SPR binding kinetics of compounds to TNFα trimer; details: read-out: TNFα binding SPR; class symbols
Procedure: Streptavidin 100 μg/mL Streptavidin (Invitrogen Cat #: 434302) diluted in 10 mM sodium acetate, pH 4.5) was immobilized to both the reference and active surfaces as described in Example 51. The surfaces were conditioned with three injections of running Buffer (10 mM HEPES, 150 mMNaCl, 0.05% T20, pH 7.5, 2% DMSO) at a flow rate of 10 μL/min, Contact time: 60 s. Flow rate: 10 μL/min. The active surface was treated with biotinylated linked TNFα trimer 20 μg/mL diluted in running buffer at a flow rate of 5 μL/min contact time: 600 s, yielding a final response of ˜3000 RU. Example compounds were then serially diluted 1:1 in running buffer (10 mM HEPES, 150 mM NaCl, 0.05% T20, pH 7.5, 2% DMSO) from 30 uM to 937.5 nM and flowed over the active and reference surfaces from lowest concentration to greatest concentration in the single-cycle kinetics format, and then allowed to dissociate in running buffer for 7200 s, at 30 μL/min. Sensorgrams were solvent corrected, double-referenced, and the data fitted and analyzed in Biacore Insight Evaluation Software Version 3.0.11.15423.

THP-1 cells = assay: Compound mediated uptake of TNFα-pHrodo in THP-1 cells (flow cytometry); design: key to the marks not given beside the values; details: ΔMFI compared with I-17, uptake at 10 μM
Procedure: THP-1 cells, a monocytic leukemia cell line that endogenously express folate receptor beta, were used as a model system to measure example compound stimulated uptake of in-house produced TNFα conjugated to the pH sensitive fluorescent dye pHrodo green (ThermoFisher Scientific #P35369).
THP-1 cells were maintained in RPMI (Gibco #61870143) with 10% v/v FBS (VWR #89510-188) with 2 mM L-alanyl-L-glutamine dipeptide, 100 units/ml penicillin and 100 μg/ml streptomycin (Gibco #15140148). Cells were pelleted, resuspended in folate-free RPMI (Gibco #27016021) and seeded at 50,000 cells per well of a 96 well plate. Example compound was added to each well as a log 2 dilution series ranging from 20 μM to 125 nM final concentration. Cells were incubated for 24 hrs and washed/resuspended in phosphate buffered saline (pH 7.4) with 1% w/v BSA. Uptake was measured using a Novocyte Advanteon Flow Cytometer (Agilent Technologies) with the […] and FITC detection configuration.

co-engagement / complex formation observed on SPR [1]: complex formation observed | Kd (FOLR2): 0.3 nM | Kd (TNFα trimer): < 1000 nM
Compound: Cc1ccc(C)c(Nc2c(Cl)c(C)nc3ccc(-c4ccc(C(=O)NCCCCn5cc(COCCOCCOCCOCCNC(=O)CC[C@H](NC(=O)c6ccc(NCc7cnc8nc(N)nc(O)c8n7)cc6)C(=O)O)nn5)nc4)cc23)c1
Uptake in THP1 cells (run) 3 (THP-1 cells; run 3): ++ | Uptake in THP1 cells (run) 4 (THP-1 cells; run 4): ++
